{"sequences": {"note": "Amino acid sequences for entries named in this document (tags omitted).", "UniProt Q92731, whole entry, looked up": "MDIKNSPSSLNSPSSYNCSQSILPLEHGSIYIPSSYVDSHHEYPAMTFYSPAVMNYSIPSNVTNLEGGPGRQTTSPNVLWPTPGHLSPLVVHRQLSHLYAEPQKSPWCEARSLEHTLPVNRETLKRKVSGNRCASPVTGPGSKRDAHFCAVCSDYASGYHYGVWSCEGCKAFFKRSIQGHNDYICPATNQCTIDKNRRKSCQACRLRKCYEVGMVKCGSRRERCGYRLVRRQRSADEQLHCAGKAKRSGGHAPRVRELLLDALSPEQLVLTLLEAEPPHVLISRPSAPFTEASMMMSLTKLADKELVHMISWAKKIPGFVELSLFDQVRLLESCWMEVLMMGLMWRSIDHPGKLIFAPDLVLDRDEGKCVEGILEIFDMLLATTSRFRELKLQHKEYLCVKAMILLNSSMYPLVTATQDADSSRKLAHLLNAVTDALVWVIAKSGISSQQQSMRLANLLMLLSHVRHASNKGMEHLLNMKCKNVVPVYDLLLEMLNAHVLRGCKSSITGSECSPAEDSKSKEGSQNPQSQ"}, "source": "PubChem BioAssay (Tox21)", "note": "This is a selection; strong and weak results do not stand in their true shares. Results filed as inconclusive are left out. Calls of active or inactive are those of the source. Calls come from the whole dose curve; as a rule, active = well fitted inhibition curve with a large enough effect in the signal ratio in the repeat runs (not every such curve was filed as active); inconclusive = weak or mixed curves, or effect the other way; inactive = no such curve, though single readings can be large or run the other way; the % refers to the signal ratio. % is set by controls: 0 for no effect and ±100 for the full control effect.", "data": [{"biological_target": "Estrogen receptor beta (Homo sapiens) (UniProt Q92731)", "assay": "qHTS assay to identify small molecule antagonists of the estrogen receptor beta (ER-beta) signaling pathway (AID 1259378)", "conditions": "ER-beta-UAS-bla HEK293T, beta-lactamase FRET ratio, 16 h; at 19 µM (top of the series)", "excerpt": "(§1) National Center for Advancing Translational Sciences [NCATS]\n(§2) NIH Chemical Genomics Center [NCGC]\n(§3) U.S. Environmental Protection Agency [EPA]\n(§4) National Institutes of Environmental Health Sciences [NIEHS]\n(§5) National Toxicology Program [NTP]\n(§6) U.S. Food and Drug Administration [FDA]\n(§7) Estrogen receptor (ER), a nuclear hormone receptor, plays an important role in development, metabolic homeostasis and reproduction. Two subtypes of ER, ER-alpha and ER-beta, have similar expression patterns with some uniqueness in both types. Endocrine disrupting chemicals (EDCs) and their interactions with steroid hormone receptors like ER causes disruption of normal endocrine function. To identify the compounds that inhibit ER signaling, an ER-beta-UAS-bla GripTite cell line (Life Technologies, Madison, WI, USA) containing a beta-lactamase reporter gene under the control of an UAS response element was used to screen Tox21 10K compound library.\n(§8) Tox21 Assay Protocol Summary:\n(§9) ER-beta-UAS-bla HEK293T cells were dispensed at 2,000 cells/4 uL of assay medium containing 2% charcoal stripped FBS per well into black wall/clear-bottom 1536-well plates using a Multidrop Combi (ThermoFisher Scientific, Waltham, MA) dispenser. After the assay plates were incubated at a 37C and 5% CO2 for 6 hr, 23 nL of compounds dissolved in DMSO, positive controls or DMSO only was transferred to the assay plate by a Pintool station (Kalypsys, San Diego, CA), followed by addition of 1 uL (1nM as final concentration) of 17-beta-estradiol (E2) in assay medium using a BioRAPTR FRD (Flying Reagent Dispenser, Aurora Discovery, San Diego, CA). The plates were incubated at 37C and 5% CO2 for 16 hr. Then 1 uL of LiveBLAzerTM B/G FRET substrate was added using a Flying Reagent Dispenser, the plates were incubated at room temperature for 2 hours, and fluorescence intensity was measured by an Envision plate reader (PerkinElmer, Shelton, CT).", "values": [{"smiles": "CCC(C)(OOC(C)(C)C)OOC(C)(C)C", "activity, negative = inhibition": "inactive: -4.61%"}]}, {"biological_target": "Estrogen receptor beta (Homo sapiens) (UniProt Q92731)", "assay": "qHTS assay to identify small molecule antagonists of the estrogen receptor beta (ER-beta) signaling pathway (AID 1259378)", "conditions": "ER-beta-UAS-bla HEK293T, beta-lactamase FRET ratio, 16 h; at 42.5 µM (top of the series)", "excerpt": "as §1, §2, §3, §4, §5, §6, §7, §8, §9", "values": [{"smiles": "CN(C(=O)Cc1ccc(Cl)c(Cl)c1)[C@H]1CC[C@@]2(CCCO2)C[C@@H]1N1CCCC1", "activity, negative = inhibition": "inactive: -9.16%"}, {"smiles": "NC(=O)Nc1ccc([As](=O)(O)O)cc1", "activity, negative = inhibition": "inactive: -0.222%"}, {"smiles": "CN(C(=O)Cc1ccccc1)[C@H]1CC[C@@]2(CCCO2)C[C@@H]1N1CCCC1", "activity, negative = inhibition": "inactive: -10.2%"}]}, {"biological_target": "Estrogen receptor beta (Homo sapiens) (UniProt Q92731)", "assay": "qHTS assay to identify small molecule antagonists of the estrogen receptor beta (ER-beta) signaling pathway (AID 1259378)", "conditions": "ER-beta-UAS-bla HEK293T, beta-lactamase FRET ratio, 16 h; at 92.4 µM (top of the series)", "excerpt": "as §1, §2, §3, §4, §5, §6, §7, §8, §9", "values": [{"smiles": "O=C(Cl)OCCOC(=O)Cl", "activity, negative = inhibition": "inactive: -18.2%"}, {"smiles": "NC(=O)Nc1ccc([As](=O)(O)O)cc1", "activity, negative = inhibition": "inactive: 1.58%"}, {"smiles": "CCOP(=S)(CC)Sc1ccccc1", "note": "(stereo not drawn)", "activity, negative = inhibition": "inactive: -0.332%"}, {"smiles": "O=P(Cl)(Cl)c1ccccc1", "activity, negative = inhibition": "inactive: 20.1%"}, {"smiles": "COP(=S)(Cl)OC", "activity, negative = inhibition": "inactive: 11.4%"}, {"smiles": "CCOC(=O)Cl", "activity, negative = inhibition": "inactive: 7.49%"}, {"smiles": "CCCCOP(OCCCC)OCCCC", "activity, negative = inhibition": "inactive: -1.17%"}, {"smiles": "O=[p+]1oc2ccccc2c2ccccc21", "note": "(stereo not drawn)", "activity, negative = inhibition": "inactive: -0.469%"}, {"smiles": "CN(N=O)C(=N)N[N+](=O)[O-]", "activity, negative = inhibition": "inactive: 1.36%"}, {"smiles": "CCCCC(CC)CO[P+](=O)OCC(CC)CCCC", "note": "(stereo not drawn)", "activity, negative = inhibition": "inactive: -7.28%"}, {"smiles": "O=P(Cl)(Oc1ccccc1)Oc1ccccc1", "activity, negative = inhibition": "inactive: 1.95%"}, {"smiles": "COC(=O)Cl", "activity, negative = inhibition": "inactive: -1.09%"}, {"smiles": "CN(C(=O)Cc1cccc2occc12)[C@H]1CC[C@@]2(CCCO2)C[C@@H]1N1CCCC1", "activity, negative = inhibition": "inactive: 2.54%"}, {"smiles": "ClP(Cl)c1ccccc1", "activity, negative = inhibition": "inactive: -2.01%"}]}]}
